Literature values in paper PMC8513935.

How the values were obtained:
[1] = log P octanol/water from commercial databases, averaged (the ESI); details: Octanol (wet), 25 C
[2] = derived by the authors as gas->solvent minus gas->water (a hypothetical dry solvent; the ESI), not a two-phase measurement; details: 25 C

log K of transfer, water to solvent [1]: 3.32 log10 K
log K of transfer, water to solvent ([2]; Acetonitrile): 3.87 log10 K
log K of transfer, water to solvent ([2]; Dichloromethane): 4.18 log10 K
SMILES: c1ccc2ccccc2c1
